The target in test [1] is High affinity cGMP-specific 3',5'-cyclic phosphodiesterase 9A (Homo sapiens, UniProt O76083). The test is described as follows: Inhibition of N-terminal GST-tagged full length human PDE9A2 expressed in baculovirus infected sf9 cells using [3H]cGMP as substrate measured after 30 mins by scintillation proximity assay. In general terms: Scintillation proximity formats need no separation of bound from free tracer.

By UniProt entry, the sequences of proteins in these tests, tags left out. Where a name states a change or a piece, a line headed by the entry shows the natural chain unless it says otherwise.
UniProt O76083: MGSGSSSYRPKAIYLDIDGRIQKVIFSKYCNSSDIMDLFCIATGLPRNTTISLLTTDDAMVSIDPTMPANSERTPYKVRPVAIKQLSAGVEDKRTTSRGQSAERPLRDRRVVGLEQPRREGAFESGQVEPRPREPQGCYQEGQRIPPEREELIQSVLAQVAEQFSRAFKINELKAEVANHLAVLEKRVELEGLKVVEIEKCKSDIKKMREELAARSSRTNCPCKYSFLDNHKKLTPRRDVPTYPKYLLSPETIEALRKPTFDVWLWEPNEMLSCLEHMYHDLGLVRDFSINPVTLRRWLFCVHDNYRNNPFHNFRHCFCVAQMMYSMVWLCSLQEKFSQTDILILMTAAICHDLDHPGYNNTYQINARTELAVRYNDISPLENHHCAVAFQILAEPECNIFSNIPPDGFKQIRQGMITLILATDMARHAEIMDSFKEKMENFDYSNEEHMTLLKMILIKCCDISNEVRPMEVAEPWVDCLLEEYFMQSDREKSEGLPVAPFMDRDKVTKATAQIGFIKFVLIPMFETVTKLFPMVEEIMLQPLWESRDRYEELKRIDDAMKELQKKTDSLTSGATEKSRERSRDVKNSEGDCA
UniProt O00408, whole entry: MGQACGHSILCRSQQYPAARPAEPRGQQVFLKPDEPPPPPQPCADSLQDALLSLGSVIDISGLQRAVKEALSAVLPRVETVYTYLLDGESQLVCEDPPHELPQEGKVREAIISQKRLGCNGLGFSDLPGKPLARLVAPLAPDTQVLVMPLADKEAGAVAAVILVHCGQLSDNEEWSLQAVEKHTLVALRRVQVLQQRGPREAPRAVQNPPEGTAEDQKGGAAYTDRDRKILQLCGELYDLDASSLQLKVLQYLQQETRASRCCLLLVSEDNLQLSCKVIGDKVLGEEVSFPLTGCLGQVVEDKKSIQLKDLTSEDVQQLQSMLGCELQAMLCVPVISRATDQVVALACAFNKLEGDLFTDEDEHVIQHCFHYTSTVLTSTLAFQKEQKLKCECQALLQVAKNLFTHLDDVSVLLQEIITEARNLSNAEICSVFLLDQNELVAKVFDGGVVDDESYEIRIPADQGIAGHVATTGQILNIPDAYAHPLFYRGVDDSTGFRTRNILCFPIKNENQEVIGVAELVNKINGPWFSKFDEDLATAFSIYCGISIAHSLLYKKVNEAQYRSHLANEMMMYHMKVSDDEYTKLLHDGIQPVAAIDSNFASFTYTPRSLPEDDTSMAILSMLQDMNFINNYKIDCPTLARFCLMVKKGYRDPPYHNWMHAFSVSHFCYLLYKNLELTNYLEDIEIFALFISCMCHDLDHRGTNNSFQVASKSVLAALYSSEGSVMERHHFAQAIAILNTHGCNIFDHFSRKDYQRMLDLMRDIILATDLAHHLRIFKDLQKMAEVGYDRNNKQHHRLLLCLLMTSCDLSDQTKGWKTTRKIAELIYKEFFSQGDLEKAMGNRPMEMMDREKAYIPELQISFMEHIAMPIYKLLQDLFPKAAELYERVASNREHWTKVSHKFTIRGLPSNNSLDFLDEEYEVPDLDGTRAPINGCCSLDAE

Test [2] addresses cGMP-dependent 3',5'-cyclic phosphodiesterase (Homo sapiens, UniProt O00408). The test can be described thus: Inhibition of human PDE2A1 expressed in baculovirus infected sf9 cells using [3H]cAMP as substrate measured after 30 mins by scintillation proximity assay.

Usually IC50 stands for the midpoint of a concentration-inhibition curve.

For the compound `CCCc1nn(C)c2c(=O)[nH]c(-c3cc(S(=O)(=O)N4CCN(C)CC4)ccc3OCC)nc12`, the IC50 in test [1] and in test [2] was greater than 10 µM in each case.

The values are drawn from ChEMBL document CHEMBL4396872, “Pharmacokinetics-Driven Optimization of 4(3 H)-Pyrimidinones as Phosphodiesterase Type 5 Inhibitors Leading to TPN171, a Clinical Candidate for the Treatment of Pulmonary Arterial Hypertension” (J Med Chem, 2019).
